{"source": "patent US20230089899A1", "about": "“METHOD FOR NON-TARGETED CHARACTERISATION OF A SOLUTION COMPRISING A PLURALITY OF SOLUTES” (COMMISSARIAT A L'ENERGIE ATOMIQUE ET AUX ENERGIES …, priority 2021, published 2023)", "settings": "from the second row of partitions (N=2), mathematical processing for two species, 14C activity"}
{"substance": "bisphenol A (BPA) marked with ^14C [^14C-BPA]", "values": [{"measurement": "log D^EXP", "result": "approximately 3"}]}
